Measured values as given in ChEMBL document CHEMBL3632461 (J Med Chem, 2015).

Biological target: T1, Myeloperoxidase (Homo sapiens, UniProt P05164)
T1 sequence (P05164 whole entry): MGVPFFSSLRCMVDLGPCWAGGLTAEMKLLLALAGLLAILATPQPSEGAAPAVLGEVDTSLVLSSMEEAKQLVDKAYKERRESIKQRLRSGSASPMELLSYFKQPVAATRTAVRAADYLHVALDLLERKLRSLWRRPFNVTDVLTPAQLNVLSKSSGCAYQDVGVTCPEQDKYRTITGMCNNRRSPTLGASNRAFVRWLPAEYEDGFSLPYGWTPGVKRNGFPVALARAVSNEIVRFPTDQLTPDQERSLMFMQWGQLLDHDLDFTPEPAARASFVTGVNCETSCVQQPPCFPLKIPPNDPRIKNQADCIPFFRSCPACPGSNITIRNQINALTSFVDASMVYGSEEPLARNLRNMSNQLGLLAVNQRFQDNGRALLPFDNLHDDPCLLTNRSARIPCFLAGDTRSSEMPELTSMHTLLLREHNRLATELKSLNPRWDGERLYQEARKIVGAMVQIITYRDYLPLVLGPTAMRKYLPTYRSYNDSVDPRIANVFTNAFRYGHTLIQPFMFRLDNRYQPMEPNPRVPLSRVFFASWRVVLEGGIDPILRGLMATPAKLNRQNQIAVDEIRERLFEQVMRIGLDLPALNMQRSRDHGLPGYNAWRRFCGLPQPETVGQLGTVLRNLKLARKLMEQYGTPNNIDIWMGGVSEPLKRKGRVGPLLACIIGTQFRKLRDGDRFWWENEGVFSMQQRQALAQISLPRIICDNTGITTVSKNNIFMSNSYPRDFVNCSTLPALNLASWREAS
Assay: Inhibition of peroxidase activity of MPO isolated from human polynuclear leukocytes using Amplex Red as substrate assessed as formation of resorufin measured every 20 secs by spectrophotometric analysis
In short: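 MPO purified from human polynuclear leukocytes, in 50 mM sodium phosphate pH 7.4 with 150 mM NaCl, 1 mM DTPA, 2 μM H₂O₂ and 30 μM Amplex Red. Resorufin fluorescence (ex 530/em 580 nm) read every 20 s at room temperature. k_obs fitted from progress curves; k_inact/K_I from the k_obs vs [I] slope; geometric mean of ≥2 experiments.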

## COc1ccc(Cl)cc1-c1cc(=O)[nH]c(=S)n1CC(N)=O [PF-06282999]
  Ki: 316 nM
